Literature values as cited in paper PMC4307180, “Overcoming myelosuppression due to synthetic lethal toxicity for FLT3-targeted acute myeloid leukemia therapy” (eLife, 2014).

Tested on: HMC1.1 cells (KIT V560G)
Conditions: proliferation, Figure 2A and reference values; ref de Jong and Zon, 2005; Guo et al., 2007; Kampa-Shittenhelm et al., 2013; cited from earlier work

Structure (SMILES): CC(C)(C)c1cc(NC(=O)Nc2ccc(-c3cn4c(n3)sc3cc(OCCN5CCOCC5)ccc34)cc2)no1.Cl.Cl [AC220, N-(5-tert-Butyl-isoxazol-3-yl)-N'-{4-[7-(2-morpholin-4-yl-ethoxy)imidazo[2,1-b][1,3]benzothiazol-2-yl]phenyl}urea Dihydrochloride]
- inhibition of FLT3- versus KIT-driven cell lines: equipotent inhibition of FLT3 and KIT-driven cell lines
